Columns and labels:
[1] = molecular target: T1, Bcl-2 (Homo sapiens, UniProt P10415); conditions: cited from earlier work
T1 construct: purchased R&D Systems, Inc

Chains of the proteins cited; added tags and fusions are not shown.
UniProt P10415, whole entry: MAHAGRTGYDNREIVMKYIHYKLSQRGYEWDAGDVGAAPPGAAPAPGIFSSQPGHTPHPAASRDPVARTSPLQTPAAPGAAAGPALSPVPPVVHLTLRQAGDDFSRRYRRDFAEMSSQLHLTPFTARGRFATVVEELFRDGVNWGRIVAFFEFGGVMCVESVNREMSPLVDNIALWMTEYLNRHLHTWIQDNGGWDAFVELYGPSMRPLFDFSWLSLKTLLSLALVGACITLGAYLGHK

[2] = molecular target: T1, Bcl-2; experiment: Bcl-2 competition binding (fluorescence polarization) assay; conditions: 3 hours incubation at room temperature, read-out: BCL2 IC50
Experimental: Biological Example 1: Bcl-2 Competition Binding (Fluorescence Polarization) Assay
This binding assay was performed in 96-well plate and with each assay contained 15 and 30 nM of labeled peptide and purified Bcl-2 protein (purchased from R&D Systems, Inc). The assay buffer contained 20 mM Hepes (pH 7.0), 50 mM KCl, 5 mM MgCl2, 20 mM Na2MoO4, 0.1 mg/ml Bovine Gamma Globulin and 0.01% NP40. Compounds were diluted in DMSO and added to the final assay with concentration range from 20 μM to 2 nM. The polarization degree (mP) value was determined by BioTek Synergy II with background subtraction after 3 hours of incubation at room temperature. IC50 was calculated using Prism software with sigmoidal dose-response curve fitting. ABT-737 was used as reference compound. Such assays, carried out with a range of doses of test compounds, allowed the determination of an approximate IC50 value.

IC50 [2]: 0.45 nM
Compound: CC1(C)CCC(c2ccc(Cl)cc2)=C(CN2CCN(c3ccc(C(=O)NS(=O)(=O)c4ccc(N[C@H](CCN5CCOCC5)CSc5ccccc5)c(S(=O)(=O)C(F)(F)F)c4)cc3)CC2)C1 [ABT-263]
Ki [1]: ≤ 1 nM

— patent US12583853B2, “1H-pyrrolo[2,3-b]pyridine derivatives and related compounds as BCL-2 inhibitors for the treatment of neoplastic and autoimmune diseases” (Newave Pharmaceutical Inc., priority 2018, dated 2026)
